Values quoted from earlier work, collected in patent US7771935B2, “Evolving new molecular function” (President and Fellows of Harvard College, priority 2002, dated 2010).

Target: T1, papain (Carica papaya, UniProt P00784)
T1 construct: purchased Sigma
T1 sequence (P00784 134-345): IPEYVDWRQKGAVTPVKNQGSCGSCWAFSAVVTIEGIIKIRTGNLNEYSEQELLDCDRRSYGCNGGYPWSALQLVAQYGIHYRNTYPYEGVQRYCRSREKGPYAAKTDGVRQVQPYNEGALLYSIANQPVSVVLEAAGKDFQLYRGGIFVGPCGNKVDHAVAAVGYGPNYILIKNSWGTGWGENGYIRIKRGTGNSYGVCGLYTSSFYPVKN
Details: known binding of the free ligand; cited from earlier work

O=C(O)CCCC[C@@H]1SC[C@@H]2NC(=O)N[C@@H]21 [biotin]
affinity for papain: no significant affinity
